Amino acid sequences for entries named in this document (tags omitted). Residues count along the entry.
UniProt Q91WP0, 20-685 limits assumed: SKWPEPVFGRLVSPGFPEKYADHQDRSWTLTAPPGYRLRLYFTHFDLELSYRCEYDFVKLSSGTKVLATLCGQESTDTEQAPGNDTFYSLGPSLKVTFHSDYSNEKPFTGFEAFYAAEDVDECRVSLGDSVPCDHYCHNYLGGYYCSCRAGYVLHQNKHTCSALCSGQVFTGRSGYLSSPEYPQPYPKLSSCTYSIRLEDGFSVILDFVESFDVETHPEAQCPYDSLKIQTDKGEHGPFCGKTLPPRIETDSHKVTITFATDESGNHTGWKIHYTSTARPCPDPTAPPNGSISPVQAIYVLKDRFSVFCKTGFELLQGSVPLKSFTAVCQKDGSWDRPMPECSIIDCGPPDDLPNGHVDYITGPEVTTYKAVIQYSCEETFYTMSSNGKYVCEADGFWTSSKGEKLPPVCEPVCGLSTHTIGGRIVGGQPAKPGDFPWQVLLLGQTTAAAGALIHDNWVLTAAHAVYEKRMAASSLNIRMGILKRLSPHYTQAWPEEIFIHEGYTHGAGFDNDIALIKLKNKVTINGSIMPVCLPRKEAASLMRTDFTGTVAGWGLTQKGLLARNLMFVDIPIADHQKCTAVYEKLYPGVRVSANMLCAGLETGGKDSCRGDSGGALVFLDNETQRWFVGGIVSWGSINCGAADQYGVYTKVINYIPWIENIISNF
UniProt O00187, 445-686 limits assumed: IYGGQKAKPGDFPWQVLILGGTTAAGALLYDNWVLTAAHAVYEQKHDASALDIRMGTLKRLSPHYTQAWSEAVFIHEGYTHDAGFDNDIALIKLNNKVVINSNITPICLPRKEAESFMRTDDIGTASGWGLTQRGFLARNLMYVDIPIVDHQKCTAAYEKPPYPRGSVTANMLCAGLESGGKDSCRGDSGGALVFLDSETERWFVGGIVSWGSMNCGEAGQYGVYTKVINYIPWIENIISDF

According to patent US11584714B2:

Tests used:
mMASP-2 = mMASP-2 (Mus musculus (Mouse), UniProt Q91WP0); test: Enzymatic inhibition of mMASP-2; assay type: biochemical; details: read-out: mMASP-2 Ki
human α-thrombin = human α-thrombin (Homo sapiens (Human), UniProt P00734); test: Enzymatic assay for thrombin; assay type: biochemical; details: read-out: Thrombin Ki
MASP-2 (CCP1-CCP2-SP) = MASP-2 (CCP1-CCP2-SP) (Homo sapiens (Human), UniProt O00187); details: for MASP-2 vs. thrombin selectivity: MASP-2 inhibition versus thrombin; for Ki: read-out: MASP-2 Ki

Row | SMILES | Ki (mMASP-2) [nM] | Ki (human α-thrombin) [nM] | MASP-2 vs. thrombin selectivity (MASP-2 (CCP1-CCP2-SP)) | Ki (MASP-2 (CCP1-CCP2-SP)) [nM]
1 | C[C@H](NC(=O)[C@@H](CCc1ccccc1)NCc1cc2ccccc2[nH]1)C(=O)NCc1ccc(C(=N)N)cc1 | < 500 | < 500 | −− (less than 1.0-fold) | < 500
2 | COC(=O)CCCCCN[C@H](CCc1ccccc1)C(=O)N[C@@H](C)C(=O)NCc1ccc(C(=N)N)cc1 |  | < 500 | * (1.0 to 5.0-fold) | < 500
3 | C[C@H](NC(=O)[C@@H](CCc1ccccc1)NCc1ccc(F)cc1)C(=O)NCc1ccc(C(=N)N)cc1 |  | < 500 | −− (less than 1.0-fold) | < 500
